# Yeast mating assay 1: variants of the scFv Ab-14

From the AlphaSeq antibody data of Engelhart et al. 2022 (doi:10.1038/s41597-022-01779-4), copy in the FLAb collection.

Target: peptide PDVDLGDISGINAS, taken from heptad repeat 2 (HR2) of SARS-CoV-2 spike.

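The parent was found by panning a naive human phage display library on the peptide. The library (AAYL50) carries one to three amino acid substitutions per variant, with no insertions or deletions. AlphaSeq pools MATa yeast showing the antibodies with MATalpha yeast showing the peptide. Binding brings cells together so that they mate, and sequencing counts the barcode pairs among the diploids. The ratio of observed to expected reads was calibrated, replicate by replicate, on BCL2-family standards whose Kd was known from biolayer interferometry. Mating was done three times.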

Parent: Ab-14, a human scFv built as VH, the linker GGGGSGGGGSGGGGS, VL. Only the CDRs of the light chain vary.
VH: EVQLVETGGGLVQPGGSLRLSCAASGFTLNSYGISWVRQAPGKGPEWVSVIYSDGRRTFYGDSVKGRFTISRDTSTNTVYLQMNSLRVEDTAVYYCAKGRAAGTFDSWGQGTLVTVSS
VL: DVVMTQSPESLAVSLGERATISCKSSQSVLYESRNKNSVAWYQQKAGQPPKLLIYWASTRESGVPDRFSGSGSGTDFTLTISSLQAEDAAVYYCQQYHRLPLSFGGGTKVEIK

Positions count from residue 1 of the parent VL; N35K puts K in place of N. Numbers give log10(Kd / nM), so 0 is 1 nM and 3 is 1 µM. Smaller is tighter. The mean shown is taken over the replicates in which the pair was detected. "n.d." marks a missing value. The strain was present, yet no cells mated with the target were sequenced in that replicate, which points to weak or no binding. In this assay the parent's reference entry averaged 0.65; its copy inside this library read 1.68. Background: pairings of library AAYL50 with three empty control strains gave a value in 18% of cases (median 4.19, 5th percentile 2.99). Values in that range, when seen in few replicates, are hard to tell from nonspecific mating. Also given: how often the same scFv was detected with the empty control strains, with their mean in brackets.

changes,log10 Kd (nM) by replicate,"log10 Kd (nM), mean",control signals
N35K+Q96K+H98F,2.47 / 2.34 / 2.60,2.47,1 of 9 (3.93)
S25G+W56N+S58V,-0.23 / -0.05 / -0.28,-0.19,2 of 9 (4.73)
S33F+S38R+R60A,n.d. / n.d. / n.d.,n.d.,0 of 9
S33A+E61G+Q96H,1.98 / 2.09 / 2.06,2.04,4 of 9 (4.93)
E32V+N37L+V39I,n.d. / n.d. / n.d.,n.d.,0 of 9
E32C+S38N+A40T,n.d. / n.d. / n.d.,n.d.,0 of 9
S33M+R34N+Q95P,4.64 / 3.57 / n.d.,4.11,4 of 9 (4.63)
T59V+P101D+S103I,n.d. / n.d. / n.d.,n.d.,0 of 9
R34L+K36C+S58T,2.69 / 2.47 / 2.75,2.64,2 of 9 (4.73)
K24S+A57G+P101Y,1.75 / 1.92 / 1.87,1.85,0 of 9
E32N+S33I+Q95T,2.55 / 1.39 / 1.81,1.92,1 of 9 (2.14)
S25E+S28R+Q95R,5.63 / 4.79 / 3.63,4.69,4 of 9 (5.14)
S38R+A57I+L100H,n.d. / n.d. / n.d.,n.d.,0 of 9
N37G+S62E+P101M,0.61 / 0.81 / 0.65,0.69,0 of 9
S38T+H98C+L100P,4.22 / 2.94 / 3.76,3.64,0 of 9
L30P+Y31V+A40H,n.d. / 3.77 / 4.44,4.11,7 of 9 (5.23)
S28M+V29M+S33R,1.84 / 1.96 / 1.84,1.88,1 of 9 (3.70)
K24D+L100R,2.13 / 2.25 / 2.77,2.38,6 of 9 (4.12)
Q27S+V29H+N35V,n.d. / 4.82 / 5.19,5.01,2 of 9 (4.15)
K24P+S62T+Q96N,n.d. / n.d. / n.d.,n.d.,0 of 9
S26C+N37V+R99A,n.d. / 2.89 / n.d.,2.89,0 of 9
K36F+W56L+S62M,0.89 / 0.90 / 0.99,0.93,2 of 9 (3.25)
S28Q+V29E+R99W,n.d. / n.d. / n.d.,n.d.,2 of 9 (4.01)
S38P+T59W+E61G,4.63 / 4.08 / n.d.,4.35,2 of 9 (4.39)
L30R+Y31S+R99Q,1.37 / 1.23 / 1.33,1.31,2 of 9 (4.22)
R34E+Y97R+H98G,0.79 / 0.82 / 0.75,0.79,3 of 9 (4.62)
S26R+S28E+Y31K,1.93 / 1.78 / 2.00,1.90,2 of 9 (3.79)
A57M+S58R+L100Q,n.d. / n.d. / n.d.,n.d.,0 of 9
W56Q+Y97T+L102H,n.d. / n.d. / n.d.,n.d.,1 of 9 (2.86)
Q27C+Q96D,1.21 / 1.17 / 1.12,1.17,1 of 9 (4.55)
V29R+R60Q+S62A,n.d. / n.d. / n.d.,n.d.,1 of 9 (3.69)
L30Q+E32I+S58R,n.d. / n.d. / n.d.,n.d.,1 of 9 (3.54)
V29H+K36E+S38T,2.61 / 3.17 / 3.03,2.94,5 of 9 (4.68)
Y31Q+R34P+A40F,n.d. / n.d. / n.d.,n.d.,1 of 9 (3.92)
L30S+H98E,0.83 / 1.17 / 1.14,1.05,2 of 9 (3.70)
S25P+W56Q+E61I,2.14 / 2.10 / 2.21,2.15,2 of 9 (4.12)
S58W+T59R,n.d. / n.d. / 3.67,3.67,0 of 9
K24F+S28N,1.24 / 1.39 / 1.39,1.34,4 of 9 (4.88)
E32L+E61K+R99Q,n.d. / n.d. / n.d.,n.d.,1 of 9 (3.33)